# Entries after “also recorded” stand apart in the source; their conditions may differ.
# Assays:
# [1] = system: Human umbilical vein endothelial cell induced by VEGF-A; test: Endothelial tube formation by VEGF-A; format: cell-based; settings: PEP1 0.05, 0.5, 5 μM, VEGF-A 10 ng/mL, 6 hours
# Experimental: On the 24-well plate coated by 200 μl of Matrigrl® basement membrane matrix (10.4 mg/mL, BD Biosciences) for 30 minutes at 37° C., the vascular endothelial cells (4×10^4 cells/well) were plated and serum-starved in the basic EBM-2 media for 2 hours. After treating with PEP1 at each concentration (0.05, 0.5, 5 μM) and the cells was stimulated by VEGF-A (10 ng/mL) for 6 hours. The change of the tube formation was observed by Olympus CKX41 inverted microscope (CAchN 10/0.25 php objective, Olympus Optical Co., Tokyo, Japan) and ToupTek Toupview software (version x86, 3.5.563, Hangzhou ToupTek Photonics Co., Zhejiang, P. R. China) (FIG. 4a).
# HSP90 [2] = test: HSP90 level in hypoxia circumstance (immunoblotting); format: cell-based, human; settings: PEP1 20 μM, vs mock treated control
# Experimental: In hypoxia circumstance, for verifying the effect of PEP1 to the level of HSP, MCF7 and HeLa cells were treated with 20 μM PEP1, and incubated in the hypoxia circumstance and the normoxia circumstance. By using BBL GasPak (Becton Dickinson) which lows the oxygen to non-detective level in 90 minutes by catalytic reaction, the anoxia circumstance was induced. The incubation time was in a range of 2 to 24 hours. As mentioned above, the cells were collected and immunoblotted by using α-HSP70, α-HSP90, α-HIF-1α, or α-GAPDH antibodies. The α-GAPDH, for the protein quantification, was used for the normalization of the amount of HSP70/90 by the amount of GAPDH.
# [3] = system: murine colon carcinoma MC38; test: Tumor growth in vivo, MC38 cells in BALB/c athymic (Nu/Nu) mice; design: species or system mouse; settings: PEP1 50 μg/kg once per 2 days
# Experimental: (§1) 7 week-old BALB/c athymic mice (Nu/Nu) (10 mice per group; n=20, female, Orient Bio Co. Gyunggido, Korea) were divided into two groups randomly after the subcutaneous injection of murine colon carcinoma MC38 (5×10^5 cells/ml in 200 μl PBS per site). PEP1 (50 μg/kg in 100 μl 0.9% NaCl solution) or PBS were injected into the mice once per 2 days. When the size of tumor reaches 10 mm, the PEP1 and PBS were injected to the inside of tumor. The size of tumor was measured in once per 2 days, and the volume of tumor was calculated following equation; volume (mm3)=((width2×length)/2). All experiments were approved by the Institute for Experimental Animals (College of Medicine, Seoul National University at Seoul, Korea).
# MCF7 cells = test: Cancer cell growth in normoxia and hypoxia (trypan blue exclusion count); format: cell-based, human; settings: PEP1 20 μM, up to 6 days
# Experimental: (§2) For verifying the effect of PEP1 to the cancer cell growth in the hypoxia circumstance, MCF7 and HeLa cells were seeded to 96-well plate of the 1×10^4 cells per well and incubated in the 10% FBS added complete media of the 37° C., 5% CO2 circumstance. After treating the serum starvation in 2 hours, it was incubated in the complete media with or without PEP1 (20 μM). As mentioned above, the cells were incubated for 1 day to 6 days in the hypoxia circumstance or the normoxia circumstance. The number of viable cells were measured by the tryphan blue exclusion staining method. All of the calculation experiments were repeated.
# HeLa cells = test: as above; format: cell-based, human; settings: PEP1 20 μM, up to 6 days
# Experimental: as §2
# VEGF = VEGF secretion by cancer cells (ELISA); format: cell-based, human; settings: MCF7 and HeLa cells, induced hypoxia, PEP1 20 μM, 24 hours
# Experimental: VEGF secretion in cancer cells was confirmed by ELISA (Enzyme-linked immunosorbent assay). MCF7 and HeLa cells were incubated in the hypoxia circumstance or the normoxia circumstance after adding PEP1 or vehicle during 24 hours. The amount of VEGF in the cell supernant was confirmed by human VEGF immune analysis kit (R&D Systems, USA) following the instruction of the manufacturer. For analyzing the concentration of HSP70 and HSP90 in blood, the blood was collected from the mouse model having tumor. After the preparation of the serum, the concentration of HSP70 and HSP90 in blood was confirmed by the immune analysis kit for HSP70 (R&D systems, USA) and HSP90 (Cusabio Biotech co., Ltd, DE, USA).
# HSP90 [4] = test: HSP90 in tumor lysates (immunoblotting); format: in vivo, mouse; settings: all three PEP1 treated tumor samples
# Experimental: as §1
# (§3) Similar to the PCNA staining method, by using immunohistochemical staining, HSP70 and HSP90 proteins expression in tumor were evaluated. The antibodies to the heat shock proteins (HSP70; sc-7298, HSP90; ab1429) was used as the first antibodies. HSP70 and HSP90 proteins expression by tumors was evaluated by immunoblotting using tumor lysate. After freezing by liquid oxygen, the tumor was crashed by the mortar, and homogenized by extraction buffer (20 mM HEPES, pH7.5, 100 mM NaCl, 0.05% Triton X-100, 1 mM DTT, 0.5 mM sodium orthovanadate, 1 mM EDTA, 0.5 mM PMSF, 10 μg/ml aprotinin, 5 μg/ml leupeptin, 2 μg/ml pepstatin). […]
# GRP78 = GRP78 in tumor lysates (immunoblotting); format: in vivo, mouse; settings: PEP1 treated sample
# Experimental: as §1, §3
# [5] = system: Human umbilical vein endothelial cell; test: Vascular endothelial cell proliferation stimulated by EGM-2 media; format: cell-based; settings: PEP1 0.05, 0.5, 5 μM, EGM-2 media stimulation
# Experimental: In this example, the Human umbilical vein endothelial cell was incubated in the EGM-2 media and only the 2 to 5 cycles of the vascular endothelial cell was selected for the experiment.
# The vascular endothelial cells were plated to a 6-well plate (BD Biosciences, Bedford, Mass., USA) of the 1×10^5 cells/well. The cells were synchronized by the basic EBM-2 media (Lonza) which has no serum and angiogenesis factors, treated by PEP1 at each concentration (0.05, 0.5, 5 μM) and stimulated by the EGM-2 media, in order to observe the cell proliferation inhibition effect.
# For detecting the cell proliferation, by using the trypan blue staining solution (Invitrogen, Carlsbad, Calif., USA), the cells were directly counted in the microscope (×100), and the cell viability was analyzed by using viability assay kit (Merck Millipore Inc.) with Muse™ analyzer.
structure (smiles),measurement,setting,value
"CC[C@H](C)[C@H](NC(=O)[C@H](Cc1ccccc1)NC(=O)[C@H](CCCNC(=N)N)NC(=O)[C@H](CC(C)C)NC(=O)[C@H](CCCNC(=N)N)NC(=O)[C@H](CO)NC(=O)[C@@H](NC(=O)[C@H](CC(C)C)NC(=O)[C@H](CC(C)C)NC(=O)[C@H](C)NC(=O)[C@@H]1CCCN1C(=O)[C@H](CCCNC(=N)N)NC(=O)[C@H](C)NC(=O)[C@@H](N)CCC(=O)O)[C@@H](C)O)C(=O)N1CCC[C@H]1C(=O)N[C@@H](CCCCN)C(=O)O [PEP1, EARPALLTSRLRFIPK]",endothelial tube formation by VEGF-A,[1],in a concentration dependent way inhibits
same,expression of HSP90 over time,HSP90 [2]; HeLa cells,significantly decreased
same,expression of HSP90 over time,HSP90 [2]; MCF7 cells,significantly decreased
same,average amount of tumor of the control group relative to PEP1 treated group,[3]; 18th day after injection,3 times
same,"amount of tumor, PEP1 treated group vs control group",[3]; measured every 2 days,significant difference
same,tumor weight of the control group compared with PEP1 treated group,[3]; after sacrifice,much heavier
same,cell growth inhibition effect,"MCF7 cells; hypoxia, vs normoxia",significantly increased
same,cell growth inhibition,MCF7 cells; normoxia,inhibited little
same,cell growth inhibition effect,"HeLa cells; hypoxia, vs normoxia",significantly increased
same,cell growth inhibition,HeLa cells; normoxia,inhibited little
same,amount of the secreted VEGF,VEGF,decreased
same,HSP90 protein level in tumor,HSP90 [4],decreases; also recorded: scarcely found
same,GRP78 protein level in tumor,GRP78,decreased
same,vascular endothelial cell proliferation,[5],inhibited in a concentration-dependent way
